How the values were obtained:
[1] = Study 101, plasma epinephrine pharmacokinetics; assay type: in vivo; settings: human, 0.3 mg IM, read-out: Cmax (GeoMean)
Procedure: Each patient was provided each treatment of the trial with 72-hour washout periods between each treatment, beginning with a 3.5 mg intranasal dose, followed by a 0.3 mg intramuscular dose, followed by a 0.5 mg intramuscular dose, and concluding with a 5.5 mg intranasal dose, with a safety follow-up performed 3 to 5 days after the final dose was administered. The primary endpoints of the study were pharmacokinetic measurements and assessments of comparative bioavailability, while the secondary endpoints were safety concerns and pharmacodynamic assessments.

[2] = Human Phase 1 clinical study, plasma epinephrine pharmacokinetics and bioavailability; assay type: in vivo; settings: 0.5 mg IM, read-out: mean baseline-corrected Cmax
Procedure: Nor did the subject participate in Treatment D.
Blood samples were collected prior to dosing at 60, 30, and 0 minutes before dosing, and after dosing at 2, 5, 7, 10, 15, 20, 25, 30, 45, 60, 90, 120, 180, 240, and 360 minutes. […] Blood samples were analyzed in 8 runs with between run accuracy of −3.66% to 4.02% and precision of 1.30% to 9.94%. […] Recovery was >75% and freeze-thaw, short-term and long-term stability (584 days) were all shown to be acceptable; the analyte was stable under all conditions tested.
Baseline correction was accomplished using the average of the measured concentrations at nominal times of −60, −30, and 0 minutes before dosing.
The PK population consists of all human subjects who provided sufficient PK samples for a given treatment to allow for adequate determination of PK parameters of interest.

- Cmax [1]: 0.199 ng/mL
- Cmax [2]: 0.396 ng/mL
SMILES: CNC[C@H](O)c1ccc(O)c(O)c1 [Epinephrine IM, epinephrine]

Source: patent US12605517B1 (Belhaven BioPharma Inc., priority 2024, dated 2026)
